# OPERA 2.9 data: fraction unbound values

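These are experimental values that the OPERA curators gathered from public databases to train and test their QSAR models. A listed value is a point estimate from one report or more. How each value was measured is not recorded, so precision varies. The measured form (salt, isomer or mixture) is not always the one drawn. Some entries may be limits or estimates that an upstream database listed as plain numbers.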

The unbound fraction in human plasma runs from 0 (all bound) to 1 (all free).

SMILES | fraction unbound
C1N2CN3CN1CN(C2)C3 | 0.352
CCOc1cc(Cc2cnc(N)nc2N)cc(OCC)c1-n1cccc1 | 0.1
Nc1ncnc2c1ncn2[C@@H]1O[C@H](CO)[C@@H](O)[C@@H]1O | 0.69
CN[C@@H]1C[C@H]2O[C@@](C)([C@@H]1OC)n1c3ccccc3c3c4c(c5c6ccccc6n2c5c31)C(=O)N[C@@H]4O | 0.0036
O=C(NCCO[N+](=O)[O-])c1cccnc1 | 0.75
CCc1nnc(NS(=O)(=O)c2ccc(N)cc2)s1 | 0.03
CCOC(=O)OC(C)OC(=O)[C@@H]1N2C(=O)[C@@H](NC(=O)[C@H](N)c3ccccc3)[C@H]2SC1(C)C (some centres not stated) | 0.8
C[C@@H]1C[C@H]2[C@@H]3CCC4=CC(=O)C=C[C@]4(C)[C@@]3(F)[C@@H](O)C[C@]2(C)[C@@]1(O)C(=O)COP(=O)([O-])[O-].[Na+].[Na+] | 0.0956
NS(=O)(=O)Cc1noc2ccccc12 | 0.6
CCCN(CCC)CCc1cccc2c1CC(=O)N2 | 0.6
CCCCOC(=O)c1ccc(O)cc1 | 0.04157
CN(C)C(=O)C1(N2CCCCC2)CCN(CC[C@@]2(c3ccc(Cl)c(Cl)c3)CN(C(=O)c3ccccc3)CCO2)CC1.Cl | 0.0127
CC[N+](C)(C)Cc1ccccc1Br | 0.93
CCC(=O)O[C@]1(C(=O)SCF)[C@H](C)C[C@H]2[C@@H]3C[C@H](F)C4=CC(=O)C=C[C@]4(C)[C@@]3(F)[C@@H](O)C[C@@]21C | 0.04478
CN(C)CCC(c1ccc(Br)cc1)c1ccccn1 (configuration not stated) | 0.28
O=C(Nc1nn[nH]n1)c1cc(Oc2ccccc2)c2ccccn2c1=O | 0.0191
N[C@@H](C(=O)N[C@@H]1C(=O)N2C(C(=O)O)=C(Cl)CS[C@H]12)c1ccccc1 | 0.75
COC1=CC(=O)C[C@@H](C)[C@]12Oc1c(Cl)c(OC)cc(OC)c1C2=O | 0.2
CC(=O)O[C@H]1C[C@@H]2CC[C@@H]3[C@H](CC[C@@]4(C)[C@H]3C[C@H]([N+]3(C)CCCCC3)[C@@H]4OC(C)=O)[C@@]2(C)C[C@@H]1N1CCCCC1.[Br-] | 0.25
NCc1ccccc1CC(=O)N[C@@H]1C(=O)N2C(C(=O)O)=C(CSc3nnnn3CC(=O)O)CS[C@H]12 | 0.19
CC(C)(C)C(=O)OCOP(=O)(COCCn1cnc2c(N)ncnc21)OCOC(=O)C(C)(C)C | 0.96
CC1(C)S[C@@H]2[C@H](NC(=O)[C@@H](c3ccccc3)S(=O)(=O)O)C(=O)N2[C@H]1C(=O)O | 0.5
CN(C)[C@@H]1C(O)=C(C(=O)NCN[C@@H](CCCCN)C(=O)O)C(=O)[C@@]2(O)C(O)=C3C(=O)c4c(O)cccc4[C@@](C)(O)C3C[C@@H]12 (stereo partly drawn) | 0.55
Cc1nc(NS(=O)(=O)c2ccc(N)cc2)oc1C | 0.3
O=C(c1ccc(O)cc1O)c1ccc(O)cc1O | 0.0354
OC(CCN1CCCCC1)(C1CCCCC1)c1ccccc1 (configuration not stated) | 0.37
C[C@@H](O)[C@H]1C(=O)N2C(C(=O)[O-])=C(SC3Cn4cnc[n+]4C3)[C@H](C)[C@H]12 (stereo partly drawn) | 0.92
O=C(O)c1cccc(N(Cc2cccnc2)c2ccc(OC(F)F)c(OC(F)F)c2)c1 | 0.0142
CCOC(=O)[C@H](CCc1ccccc1)N[C@@H](C)C(=O)N1Cc2cc(OC)c(OC)cc2C[C@H]1C(=O)O | 0.5
CC(=O)N(CC(O)CO)c1c(I)c(C(=O)NCC(O)CO)c(I)c(C(=O)NCC(O)CO)c1I (configuration not stated) | 0.9883
Cc1c(C2(c3cc(Br)c(O)c(Br)c3C)OS(=O)(=O)c3ccccc32)cc(Br)c(O)c1Br | 0.00183
CN(C)CCC=C1c2ccccc2C=Cc2ccccc21 | 0.07408

Extract of 3 entries:

SMILES | fraction unbound
CCOC(=O)[C@H](CCc1ccccc1)N[C@@H](C)C(=O)N1Cc2cc(OC)c(OC)cc2C[C@H]1C(=O)O | 0.5
CCCCOC(=O)c1ccc(O)cc1 | 0.04157
CN(C)CCC=C1c2ccccc2C=Cc2ccccc21 | 0.07408

Values as listed in the OPERA 2.9 repository of K. Mansouri.